Values quoted from earlier work, collected in publication PMC4583267, “Synthesis and Evaluation of Novel Triterpene Analogues of Ursolic Acid as Potential Antidiabetic Agent” (PLoS ONE, 2015).

Sequences of proteins named here, by UniProt entry; tags and fusion partners are left off.
UniProt P53341, whole entry: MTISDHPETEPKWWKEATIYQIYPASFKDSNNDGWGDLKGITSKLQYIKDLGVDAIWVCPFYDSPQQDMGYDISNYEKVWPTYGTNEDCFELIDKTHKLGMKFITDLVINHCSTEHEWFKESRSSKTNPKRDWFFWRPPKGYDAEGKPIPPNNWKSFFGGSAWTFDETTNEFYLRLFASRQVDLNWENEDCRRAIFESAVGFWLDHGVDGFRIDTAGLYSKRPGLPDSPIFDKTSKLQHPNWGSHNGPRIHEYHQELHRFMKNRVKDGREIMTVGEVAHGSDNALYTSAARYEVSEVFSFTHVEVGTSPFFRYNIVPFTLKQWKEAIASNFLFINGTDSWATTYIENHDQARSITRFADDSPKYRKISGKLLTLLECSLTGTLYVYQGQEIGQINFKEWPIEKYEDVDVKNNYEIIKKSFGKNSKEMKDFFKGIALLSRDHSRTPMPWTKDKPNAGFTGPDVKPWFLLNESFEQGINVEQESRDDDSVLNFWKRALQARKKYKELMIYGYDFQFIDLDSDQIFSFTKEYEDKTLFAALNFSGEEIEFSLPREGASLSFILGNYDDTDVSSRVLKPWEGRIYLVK

target: α-glucosidase from baker's yeast (Saccharomyces cerevisiae, UniProt P53341); details: S4 Table; analogues of previous work; cited from earlier work

| SMILES | Observed pIC50 |
| --- | --- |
| CCC(=O)O[C@H]1CC[C@@]2(C)C(CC[C@]3(C)C2CC=C2C4[C@@H](C)[C@H](C)CC[C@]4(C(=O)Nc4ccc(F)cc4)CC[C@]23C)C1(C)C (some centres unmarked) | 5.336 |
| CCC(=O)O[C@H]1CC[C@@]2(C)C(CC[C@]3(C)C2CC=C2C4[C@@H](C)[C@H](C)CC[C@]4(C(=O)Nc4ccccc4F)CC[C@]23C)C1(C)C (some centres unmarked) | 5.259 |
| CCC(=O)O[C@H]1CC[C@@]2(C)C(CC[C@]3(C)C2CC=C2C4[C@@H](C)[C@H](C)CC[C@]4(C(=O)Nc4ccccc4Br)CC[C@]23C)C1(C)C (some centres unmarked) | 4.522 |
| CC(C)C(=O)O[C@H]1CC[C@@]2(C)C(CC[C@]3(C)C2CC=C2C4[C@@H](C)[C@H](C)CC[C@]4(C(=O)O)CC[C@]23C)C1(C)C (some centres unmarked) | 5.487 |
| CCC(=O)O[C@H]1CC[C@@]2(C)C(CC[C@]3(C)C2CC=C2C4[C@@H](C)[C@H](C)CC[C@]4(C(=O)Nc4ccc(Cl)cc4)CC[C@]23C)C1(C)C (some centres unmarked) | 5.261 |
| CCC(=O)O[C@H]1CC[C@@]2(C)C(CC[C@]3(C)C2CC=C2C4[C@@H](C)[C@H](C)CC[C@]4(C(=O)Nc4ccccc4)CC[C@]23C)C1(C)C (some centres unmarked) | 4.826 |
| CCC(=O)O[C@H]1CC[C@@]2(C)C(CC[C@]3(C)C2CC=C2C4[C@@H](C)[C@H](C)CC[C@]4(C(=O)O)CC[C@]23C)C1(C)C (some centres unmarked) | 5.575 |
| CCC(=O)O[C@H]1CC[C@@]2(C)C(CC[C@]3(C)C2CC=C2C4[C@@H](C)[C@H](C)CC[C@]4(C(=O)Nc4ccc(OC)cc4)CC[C@]23C)C1(C)C (some centres unmarked) | 5.196 |
| CCC(=O)O[C@H]1CC[C@@]2(C)C(CC[C@]3(C)C2CC=C2C4[C@@H](C)[C@H](C)CC[C@]4(C(=O)Nc4ccc(Br)cc4)CC[C@]23C)C1(C)C (some centres unmarked) | 5.329 |
| CCCC(=O)O[C@H]1CC[C@@]2(C)C(CC[C@]3(C)C2CC=C2C4[C@@H](C)[C@H](C)CC[C@]4(C(=O)O)CC[C@]23C)C1(C)C (some centres unmarked) | 5.996 |
| CCC(=O)O[C@H]1CC[C@@]2(C)C(CC[C@]3(C)C2CC=C2C4[C@@H](C)[C@H](C)CC[C@]4(C(=O)Nc4ccccc4Cl)CC[C@]23C)C1(C)C (some centres unmarked) | 4.920 |
